# Biological target: human P2X3 (Homo sapiens, UniProt P56373)
# The chains behind the UniProt entries cited, without tags or fusion partners.
# UniProt P56373, whole entry: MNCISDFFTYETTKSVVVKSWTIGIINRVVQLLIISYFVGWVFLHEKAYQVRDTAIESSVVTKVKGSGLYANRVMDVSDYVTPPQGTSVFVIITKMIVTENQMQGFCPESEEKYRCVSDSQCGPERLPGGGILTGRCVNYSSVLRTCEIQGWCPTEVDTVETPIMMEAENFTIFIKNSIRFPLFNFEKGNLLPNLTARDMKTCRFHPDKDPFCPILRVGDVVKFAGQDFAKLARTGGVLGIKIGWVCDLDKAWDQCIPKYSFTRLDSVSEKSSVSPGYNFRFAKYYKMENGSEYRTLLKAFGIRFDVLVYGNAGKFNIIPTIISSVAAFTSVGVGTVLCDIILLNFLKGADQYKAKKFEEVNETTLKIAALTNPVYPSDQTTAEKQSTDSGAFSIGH
# Test: Intracellular Calcium Measurement to Assess Antagonist Affinity (FLIPR, Fluo-4, α,β-meATP agonist)
# Details: cells expressing human P2X3; agonist α,β-meATP at EC50; antagonist added 10 min before agonist
# Source text: Generation of a Human P2X3 and P2X2/3 Stable Cell Line—Human P2X3 receptor cDNA (Accession number NM_002559) was subcloned as a 5′XhoI and 3′HindIII fragment into the expression vector pcDNA5/FRT (Invitrogen). Human P2X2 receptor cDNA (Accession number NM_174873) was subcloned as a 5′EcoRI and 3′NotI fragment into the expression vector pIRESneo2 (BD Biosciences Clontech). The human P2X3 expression construct was transfected using Lipofectamine 2000 (Invitrogen) into Flp-in-293 cells (Invitrogen) according to the manufacturer's directions. Cells positive for flp-mediated recombination of […] P2X3 were selected using 150 μg/ml hygromycin. […]
# Intracellular Calcium Measurement to Assess Antagonist Affinity—A fluorescent imaging plate reader (FLIPR; Molecular Devices) was used to monitor intracellular calcium levels using the calcium-chelating dye Fluo-4 (Molecular Probes). The excitation and emission wavelengths used to monitor fluorescence were 488 nm and 530 nm, respectively. […] During this period fluorescence data is collected at 3 sec intervals followed by 10 sec intervals. […] Following agonist addition fluorescence was measured at 5 sec intervals and analyzed based on the increase in peak relative fluorescence units (RFU) compared to the basal fluorescence. […]
smiles,measurement,value
Cc1ccc(-c2cc(C(=O)N[C@H](C)c3ccc(C(F)(F)F)[n+]([O-])c3)cn3c(-c4ccccn4)nnc23)cc1,IC50,6.4 nM
